Reference: ChEMBL document CHEMBL1125689, “Structure-activity studies on a potent antagonist to organophosphate-induced toxicity” (1991)
Activity calls are given as the source filed them. The rule behind the calls is not given here.

Tested on: not listed separately
Experiment: The relative potency was evaluated

| Structure (SMILES) | Relative potency |
| --- | --- |
| CNC(=O)Oc1ccc2c(c1)[C@]1(C)CCN(C)[C@@H]1N2C | 0.37 |
| CN(C)C(=O)Oc1ccc[n+](C)c1 | 0.21 |
| C[N+](C)(CC(=O)c1ccc(-c2ccc(C(=O)C[N+](C)(C)CC3OCCCO3)cc2)cc1)CC1OCCCO1 | 1 |

Tested on: Mus musculus
Experiment: Ability to antagonize paraoxon-induced lethality in mice.(umol/kg required to protect 50% of the mice for 24 hr versus a LD99 dose of paraoxon); inactive

| Structure (SMILES) | PD50 |
| --- | --- |
| C[N+](C)(CC(=O)c1ccc(-c2ccc(C(=O)C[N+](C)(C)CC3CCCCC3)cc2)cc1)CC1CCCCC1 | inactive |
| C[N+](C)(CC(=O)c1ccc(-c2ccc(C(=O)C[N+](C)(C)CC3CCOCO3)cc2)cc1)CC1CCOCO1 (centres undefined) | inactive |

Tested on: Mus musculus
Experiment: Ability to antagonize paraoxon-induced lethality in mice.(umol/kg required to protect 50% of the mice for 24 hr versus a LD99 dose of paraoxon); IA=Inactive

| Structure (SMILES) | PD50 |
| --- | --- |
| C[N+](C)(C)CC1OCCCO1 | inactive |
| C[N+](C)(CC(=O)c1ccc(-c2ccccc2)cc1)CC1OCCCO1 | inactive |
| C[N+](C)(CC(=O)c1ccccc1)CC1OCCCO1 | inactive |
| C[N+](C)(CC(=O)c1ccc(-c2ccc(C(=O)C[N+](C)(C)CC3OCCO3)cc2)cc1)CC1OCCO1 | inactive |
